In patent US20080008652A1, “Methods and compositions for mediation of immune responses and adjuvant activity” (The Regents of the University of Michigan, priority 2006, published 2008):

Test system: BMDM
Experiment: Cooperation of low-dose LPS with microbial ligands for IL-1β secretion
Type: cell-based, mouse
Settings: WT BMDM; 10 ng ml−1 LPS and 10 ng ml−1 ligand; 24 h
Experimental: Measurements of cytokines. BMDM and peritoneal macrophages were prepared as previously described. Cells were stimulated with various microbial and synthetic ligands for 24 h and the supernatants were analyzed for IL-1β, IL-18, TNFα and IL-6 secretion. The following ligand concentrations were used: FLS-1, Pam3CSKKK4, LPS, lipoteichoic acid, lipid A and MDP were used at 1 μg ml^−1. For analysis of cooperation of LPS with various ligands, 10 ng ml^−1 of LPS and 10 ng ml^−1 of various ligands were used. In some experiments, the macrophages were stimulated with ligands for 16 h and then with medium containing 2 mM ATP (Sigma) for 30 min, washed, and cultured for an additional 5 h. Mouse cytokines were measured in culture supernatants with enzyme-linked immunoabsorbent assay (ELISA) kits (R and D Systems, Minneapolis, Minn.).

## CC(C)Cn1cnc2c(N)nc3ccccc3c21 [R837, Imiquimod]
  synergy with LPS for the secretion of IL-1β: synergized
